## Permeability data for macrocyclic peptides

Values of Kelly et al. 2021, doi:10.1021/jacs.0c06115, as listed in CycPeptMPDB.

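Lipid, pH, incubation time, direction and concentration are not recorded in the data file. Other peptides of the study may be missing here. Entries at the database's floor value (log10 P of -10) are not listed.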

PAMPA is the parallel artificial membrane permeability assay, which has no cells and reads passive diffusion.
Permeability is given as log10 of P in cm/s; higher (less negative) is more permeable.

SMILES,PAMPA (log10 cm/s)
CC(=O)N1CCC[C@H]1C(=O)N(C)[C@@H](CC(C)C)C(=O)N[C@@H]1C(=O)N[C@@H](CC(C)C)C(=O)N(C)[C@H](CC(C)C)C(=O)N[C@H](CC(C)C)C(=O)N(C)[C@H](C)C(=O)N[C@@H](CC(C)C)C(=O)N2CCC[C@@H]2C(=O)O[C@@H]1C,-5.17
CC(=O)N1CCC[C@H]1C(=O)N(C)[C@H](CC(C)C)C(=O)N[C@@H]1C(=O)N(C)[C@@H](CC(C)C)C(=O)N(C)[C@H](CC(C)C)C(=O)N(C)[C@H](CC(C)C)C(=O)N(C)[C@@H](C)C(=O)N[C@H](CC(C)C)C(=O)N2CCC[C@@H]2C(=O)O[C@@H]1C,-5.46
CC(=O)N1CCC[C@H]1C(=O)N(C)[C@@H](CC(C)C)C(=O)N[C@@H]1C(=O)N[C@H](CC(C)C)C(=O)N[C@@H](CC(C)C)C(=O)N(C)[C@H](CC(C)C)C(=O)N[C@H](C)C(=O)N[C@@H](CC(C)C)C(=O)N2CCC[C@@H]2C(=O)O[C@@H]1C,-5.34
CC(=O)N1CCC[C@@H]1C(=O)N(C)[C@@H](CC(C)C)C(=O)N[C@@H]1C(=O)N(C)[C@@H](CC(C)C)C(=O)N[C@H](CC(C)C)C(=O)N(C)[C@H](CC(C)C)C(=O)N[C@H](C)C(=O)N[C@@H](CC(C)C)C(=O)N2CCC[C@H]2C(=O)O[C@@H]1C,-5.93
CC(=O)N[C@@H]1C(=O)N2CCC[C@H]2C(=O)N(C)[C@H](CC(C)C)C(=O)N[C@@H](CC(C)C)C(=O)N[C@@H](CC(C)C)C(=O)N[C@@H](CC(C)C)C(=O)N(C)[C@@H](C)C(=O)N[C@@H](CC(C)C)C(=O)N2CCC[C@@H]2C(=O)O[C@@H]1C,-6.56
CC(=O)N1CCC[C@@H]1C(=O)N(C)[C@@H](CC(C)C)C(=O)N[C@@H]1C(=O)N[C@H](CC(C)C)C(=O)N[C@H](CC(C)C)C(=O)N(C)[C@@H](CC(C)C)C(=O)N(C)[C@H](C)C(=O)N[C@H](CC(C)C)C(=O)N2CCC[C@H]2C(=O)O[C@@H]1C,-5.64
CC(=O)N1CCC[C@H]1C(=O)N(C)[C@@H](CC(C)C)C(=O)N[C@@H]1C(=O)N[C@@H](CC(C)C)C(=O)N(C)[C@@H](CC(C)C)C(=O)N[C@H](CC(C)C)C(=O)N(C)[C@@H](C)C(=O)N[C@@H](CC(C)C)C(=O)N2CCC[C@@H]2C(=O)O[C@@H]1C,-5.66
CC(=O)N1CCC[C@@H]1C(=O)N(C)[C@H](CC(C)C)C(=O)N[C@@H]1C(=O)N[C@@H](CC(C)C)C(=O)N[C@H](CC(C)C)C(=O)N(C)[C@H](CC(C)C)C(=O)N[C@@H](C)C(=O)N[C@@H](CC(C)C)C(=O)N2CCC[C@H]2C(=O)O[C@@H]1C,-7.59
CC(=O)N1CCC[C@@H]1C(=O)N(C)[C@@H](CC(C)C)C(=O)N[C@@H]1C(=O)N(C)[C@H](CC(C)C)C(=O)N[C@@H](CC(C)C)C(=O)N[C@H](CC(C)C)C(=O)N(C)[C@@H](C)C(=O)N[C@@H](CC(C)C)C(=O)N2CCC[C@H]2C(=O)O[C@@H]1C,-5.29
CC(=O)N1CCC[C@@H]1C(=O)N(C)[C@H](CC(C)C)C(=O)N[C@@H]1C(=O)N(C)[C@H](CC(C)C)C(=O)N(C)[C@H](CC(C)C)C(=O)N[C@H](CC(C)C)C(=O)N(C)[C@H](C)C(=O)N[C@@H](CC(C)C)C(=O)N2CCC[C@H]2C(=O)O[C@@H]1C,-5.09
CC(=O)N1CCC[C@H]1C(=O)N[C@@H]1C(=O)N[C@H](CC(C)C)C(=O)N[C@H](CC(C)C)C(=O)N[C@@H](CC(C)C)C(=O)N[C@@H](CC(C)C)C(=O)N(C)[C@H](C)C(=O)N[C@@H](CC(C)C)C(=O)N2CCC[C@@H]2C(=O)O[C@@H]1C,-6.76
CC(=O)N1CCC[C@@H]1C(=O)N(C)[C@H](CC(C)C)C(=O)N[C@@H]1C(=O)N(C)[C@@H](CC(C)C)C(=O)N(C)[C@H](CC(C)C)C(=O)N(C)[C@@H](CC(C)C)C(=O)N(C)[C@@H](C)C(=O)N[C@H](CC(C)C)C(=O)N2CCC[C@H]2C(=O)O[C@@H]1C,-5.19
CC(=O)N1CCC[C@@H]1C(=O)N(C)[C@@H](CC(C)C)C(=O)N[C@@H]1C(=O)N(C)[C@H](CC(C)C)C(=O)N(C)[C@@H](CC(C)C)C(=O)N[C@@H](CC(C)C)C(=O)N(C)[C@H](C)C(=O)N[C@H](CC(C)C)C(=O)N2CCC[C@H]2C(=O)O[C@@H]1C,-6.04
CC(=O)N1CCC[C@H]1C(=O)N(C)[C@@H](CC(C)C)C(=O)N[C@@H]1C(=O)N[C@H](CC(C)C)C(=O)N[C@@H](CC(C)C)C(=O)N(C)[C@@H](CC(C)C)C(=O)N(C)[C@@H](C)C(=O)N[C@H](CC(C)C)C(=O)N2CCC[C@@H]2C(=O)O[C@@H]1C,-6.65
CC(=O)N1CCC[C@H]1C(=O)N(C)[C@H](CC(C)C)C(=O)N[C@@H]1C(=O)N(C)[C@H](CC(C)C)C(=O)N(C)[C@@H](CC(C)C)C(=O)N(C)[C@H](CC(C)C)C(=O)N(C)[C@H](C)C(=O)N[C@H](CC(C)C)C(=O)N2CCC[C@@H]2C(=O)O[C@@H]1C,-5.03
CC(=O)N1CCC[C@@H]1C(=O)N(C)[C@@H](CC(C)C)C(=O)N[C@@H]1C(=O)N[C@@H](CC(C)C)C(=O)N[C@H](CC(C)C)C(=O)N[C@@H](CC(C)C)C(=O)N[C@@H](C)C(=O)N[C@@H](CC(C)C)C(=O)N2CCC[C@H]2C(=O)O[C@@H]1C,-7.10
CC(=O)N1CCC[C@@H]1C(=O)N(C)[C@H](CC(C)C)C(=O)N[C@@H]1C(=O)N(C)[C@H](CC(C)C)C(=O)N[C@H](CC(C)C)C(=O)N(C)[C@@H](CC(C)C)C(=O)N(C)[C@@H](C)C(=O)N[C@H](CC(C)C)C(=O)N2CCC[C@@H]2C(=O)O[C@@H]1C,-5.59
CC(=O)N1CCC[C@@H]1C(=O)N(C)[C@H](CC(C)C)C(=O)N[C@@H]1C(=O)N(C)[C@H](CC(C)C)C(=O)N(C)[C@@H](CC(C)C)C(=O)N(C)[C@@H](CC(C)C)C(=O)N(C)[C@H](C)C(=O)N[C@H](CC(C)C)C(=O)N2CCC[C@@H]2C(=O)O[C@@H]1C,-5.78
CC(=O)N1CCC[C@H]1C(=O)N(C)[C@H](CC(C)C)C(=O)N[C@@H]1C(=O)N[C@H](CC(C)C)C(=O)N(C)[C@H](CC(C)C)C(=O)N[C@H](CC(C)C)C(=O)N(C)[C@@H](C)C(=O)N[C@@H](CC(C)C)C(=O)N2CCC[C@@H]2C(=O)O[C@@H]1C,-5.39
CC(=O)N1CCC[C@H]1C(=O)N(C)[C@@H](CC(C)C)C(=O)N[C@@H]1C(=O)N(C)[C@@H](CC(C)C)C(=O)N(C)[C@H](CC(C)C)C(=O)N(C)[C@@H](CC(C)C)C(=O)N(C)[C@@H](C)C(=O)N[C@H](CC(C)C)C(=O)N2CCC[C@@H]2C(=O)O[C@@H]1C,-5.68
CC(=O)N1CCC[C@H]1C(=O)N[C@@H]1C(=O)N(C)[C@H](CC(C)C)C(=O)N[C@H](CC(C)C)C(=O)N[C@H](CC(C)C)C(=O)N(C)[C@@H](CC(C)C)C(=O)N[C@H](C)C(=O)N[C@@H](CC(C)C)C(=O)N2CCC[C@@H]2C(=O)O[C@@H]1C,-6.17

Excerpt, the opening 3 entries:

SMILES	PAMPA (log10 cm/s)
CC(=O)N1CCC[C@H]1C(=O)N(C)[C@@H](CC(C)C)C(=O)N[C@@H]1C(=O)N[C@@H](CC(C)C)C(=O)N(C)[C@H](CC(C)C)C(=O)N[C@H](CC(C)C)C(=O)N(C)[C@H](C)C(=O)N[C@@H](CC(C)C)C(=O)N2CCC[C@@H]2C(=O)O[C@@H]1C	-5.17
CC(=O)N1CCC[C@H]1C(=O)N(C)[C@H](CC(C)C)C(=O)N[C@@H]1C(=O)N(C)[C@@H](CC(C)C)C(=O)N(C)[C@H](CC(C)C)C(=O)N(C)[C@H](CC(C)C)C(=O)N(C)[C@@H](C)C(=O)N[C@H](CC(C)C)C(=O)N2CCC[C@@H]2C(=O)O[C@@H]1C	-5.46
CC(=O)N1CCC[C@H]1C(=O)N(C)[C@@H](CC(C)C)C(=O)N[C@@H]1C(=O)N[C@H](CC(C)C)C(=O)N[C@@H](CC(C)C)C(=O)N(C)[C@H](CC(C)C)C(=O)N[C@H](C)C(=O)N[C@@H](CC(C)C)C(=O)N2CCC[C@@H]2C(=O)O[C@@H]1C	-5.34